The record followed here is patent publication US20260137794A1, “LIGAND-DRUG CONJUGATE AND USE THEREOF” (SYSTIMMUNE, INC., priority 2022, published 2026).

A value given as a limit tells only on which side of the number the result lay.

Assay type in all cases: cell-based, Human
The subject of assay [1] is SK-BR-3. Description: HER2 cell killing experiment by MTS method, SK-BR-3. The settings on record: SK-BR-3, HER2 high expression, 5 days. The method, then:
(§1) Pharmacodynamic test at cellular level: cell plating was performed on a 96-well plate in a certain density. After the cells adhered to the wall (usually taking at least 4 h), a series of drugs in several folds of dilution were added to each well plate to act for a certain period of time, for killing the cells. At the end of action of the drugs, a certain amount of MTS was added to react at 37° C. under 5% CO2 for 1-4 h. After color development using the MTS reagent, the OD 490 nm absorbance value was detected using a microplate reader, and then the IC50 for cell killing was analyzed and calculated.
(§2) Before addition, according to the concentration of each test sample, a drug (5×mother liquor concentration) was prepared using a preheated 1% FBS culture medium according to the initial concentration of 5.0 μM, and then diluted according to 10 folds of gradient concentration, totaling 8 detection points, followed by standing for later use. During the preparation, each concentration was uniformly mixed using an oscillator, specifically, oscillating for 2-3 sec at a time, with an interval of 1 sec, and then oscillating again, repeating 2-3 times.
(§3) The final concentration of the antibody and the antibody conjugated drug was 0 (Vehicle), 0.6 pM, 4.25 pM, 29.75 pM, 0.21 nM, 1.46 nM, 10.20 nM, 71.43 nM, 500 nM. […]

Assay [2] deals with MDA-MB-453. Description: HER2 cell killing experiment by MTS method, MDA-MB-453. The settings on record: MDA-MB-453, HER2 moderate expression, 5 days. The method, then:
as §1, §2, §3

The test system of assay [3] is H1975. Description: HER2 cell killing experiment by MTS method, H1975. The settings on record: H1975, HER2 low expression, 5 days. As to the method: as §1, §2, §3
(Tetrazolium dyes change colour on reduction, which living cells bring about.)

Assay [4] concerns MDA-MB-468. Description: HER2 cell killing experiment by MTS method, MDA-MB-468. The settings on record: MDA-MB-468, HER2 negative, 5 days. The method, then:
as §1, §2, §3

Turning to Tras-Ex01 (DAR8), the half-inhibitory concentration (IC50) (commonly the concentration at which inhibition is half-maximal) in assay [1] was more than 500 nM; in assay [2], more than 500 nM; in assay [3], 366 nM; in assay [4], 99.2 nM.
